Patent US20220143061A1, “3'3'-CYCLIC DINUCLEOTIDES AND PRODRUGS THEREOF” (INSTITUTE OF ORGANIC CHEMISTRY AND BIOCHEMISTRY ASCR, V.V.I., priority 2019, published 2022)

Chains of the proteins cited; added tags and fusions are not shown.
UniProt Q86WV6, whole entry H232R: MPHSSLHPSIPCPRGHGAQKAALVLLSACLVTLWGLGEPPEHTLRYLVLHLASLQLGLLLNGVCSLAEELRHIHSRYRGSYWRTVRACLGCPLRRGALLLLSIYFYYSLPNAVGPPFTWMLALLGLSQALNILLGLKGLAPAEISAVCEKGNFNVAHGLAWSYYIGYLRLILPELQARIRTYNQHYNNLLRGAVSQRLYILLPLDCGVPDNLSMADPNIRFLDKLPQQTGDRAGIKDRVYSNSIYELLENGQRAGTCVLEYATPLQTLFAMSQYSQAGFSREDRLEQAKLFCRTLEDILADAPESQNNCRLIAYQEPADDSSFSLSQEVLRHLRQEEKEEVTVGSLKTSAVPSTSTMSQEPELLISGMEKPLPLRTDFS

Target: T1, human wild type STING (WT STING) (Homo sapiens, UniProt Q86WV6, H232R)
T1 construct: host or cells: 293T cells (ATCC CRL-3216), stably double transfected with pUNO1-hSTING-WT and pGL64.27-4×ISRE
Assay: 293T WT STING standard reporter assay
Format: cell-based
Details: 293T WT STING EC50, 293T wtSTING-FL cells, no digitonin, 7 hours; ISRE firefly luciferase
Source text: Two complementary oligonucleotides of the sequence […] […] […] […] […] The oligonucleotides were mixed in equal molar amounts, hybridized, and cleaved by restriction endonucleases HindIII (cat. #. R0104S, NEB, Ipswich, USA) and BglII (cat. #R0144S, NEB, Ipswich, USA). Ultimately, they were ligated into plasmid pGL4.27 (cat. #E6651, Promega, Madison, USA) linearized with the same enzymes. As result the sequence with four ISRE sites was placed upstream of the minimum promoter of firefly luciferase reporter gene.
After 5 minutes incubation at room temperature (RT), 250 μL of the mixture was added dropwise to the cells in one well. Cells were incubated 36 hours at 37° C. with 5% CO2, and then detached with 0.05% Trypsin and 0.22 g/L EDTA (both cat. #L0941, Biowest, Riverside, USA).
Transfected cells were seeded onto poly-D-lysine coated six well plates at density 50,000 cells per 1 cm^2 in DMEM medium with high glucose containing 10% heat inactivated FBS, 30 μg/mL blasticidin (cat. #ant-b1-05, InvivoGen, San Diego, USA), 0.06 mg/ml Penicillin G and 0.1 mg/ml Streptomycin Sulfate (both cat. #. L0018, Biowest, Riverside, USA). The medium was replenished every 3-4 days until visible colonies of cells resistant to blasticidin were formed.
Blasticidin resistant cells stably expressing WT STING were further transfected with pGL64.27-4×ISRE plasmid following the same procedure as described above. […] Homogeneous culture of stably double transfected cells was prepared by limiting dilution of cells in 96 well plates and wells with cells were selected that originated from a single cell.
The medium was removed the next day and three-fold serial dilutions of compounds in 100 μl medium were added to the cells. The plates were incubated for 7 hours at 37° C. with 5% CO2. Next 50 μl of the medium was removed from wells, and 30 μl of ONE-Glo™ Luciferase Assay System reagent (cat. #E6120, Promega, Madison, USA) was added to each well. Luminescence was read on Synergy H1 (Biotek, Winooski, USA).

Row | SMILES | pEC50
1 | CCCCCCCCCCCCCCCC(=O)OCSP1(=O)OC[C@H]2O[C@@H](n3cnc4c(N)ncnc43)[C@H](F)[C@@H]2OCP(=O)(O)OC[C@H]2O[C@@H](n3cnc4c(N)ncnc43)[C@H](F)[C@@H]2O1 (single isomer, unassigned) [Compound 38b] | 7.52
2 | CCCCCCCCCCCCCCCC(=O)OCSP1(=O)OC[C@H]2O[C@@H](n3cnc4c(N)ncnc43)[C@H](F)[C@@H]2OCP(=O)(O)OC[C@H]2O[C@@H](n3cnc4c(N)ncnc43)[C@H](F)[C@@H]2O1 (single isomer, unassigned) [Compound 38a] | 7.70
3 | CC(C)(C)C(=O)OCSP1(=O)OC[C@H]2O[C@@H](n3cnc4c(N)ncnc43)[C@H](F)[C@@H]2OCP(=O)(O)OC[C@H]2O[C@@H](n3cnc4c(N)ncnc43)[C@H](F)[C@@H]2O1 (single isomer, unassigned) [Compound 32a] | 6.15
4 | CC(C)(C)C(=O)OCOc1ccc(CSP2(=O)OC[C@H]3O[C@@H](n4cnc5c(N)ncnc54)[C@H](F)[C@@H]3OCP(=O)(O)OC[C@H]3O[C@@H](n4cnc5c(N)ncnc54)[C@H](F)[C@@H]3O2)cc1 (single isomer, unassigned) [Compound 33a] | 6.52
5 | CCCCCCCCCCCCCC(=O)OCSP1(=O)OC[C@H]2O[C@@H](n3cnc4c(N)ncnc43)[C@H](F)[C@@H]2OCP(=O)(O)OC[C@H]2O[C@@H](n3cnc4c(N)ncnc43)[C@H](F)[C@@H]2O1 (single isomer, unassigned) [Compound 37a] | 7.40
6 | CCCCCCCCCCCCCC(=O)OCSP1(=O)OC[C@H]2O[C@@H](n3cnc4c(N)ncnc43)[C@H](F)[C@@H]2OCP(=O)(O)OC[C@H]2O[C@@H](n3cnc4c(N)ncnc43)[C@H](F)[C@@H]2O1 (single isomer, unassigned) [Compound 37b] | 7.52
7 | CCCCCCCCCC(=O)OCSP1(=O)OC[C@H]2O[C@@H](n3cnc4c(N)ncnc43)[C@H](F)[C@@H]2OCP(=O)(O)OC[C@H]2O[C@@H](n3cnc4c(N)ncnc43)[C@H](F)[C@@H]2O1 (single isomer, unassigned) [Compound 36b] | 7.30
8 | CC(C)(C)C(=O)OCOc1ccc(C(=O)OCSP2(=O)OC[C@H]3O[C@@H](n4cnc5c(N)ncnc54)[C@H](F)[C@@H]3OCP(=O)(O)OC[C@H]3O[C@@H](n4cnc5c(N)ncnc54)[C@H](F)[C@@H]3O2)cc1 (stereo partly drawn) [Compound 35b, {[(1R,6R,8R,9R,10R,16R,18R,19R)-8,18-bis(6-amino-9H-purin-9-yl)-9,19-difluoro-13-hydroxy-3,13-dioxo-2,4,7,11,14,17-hexaoxa-3λ^5,13λ^5-diphosphatricyclo[14.3.0.0^6,^10]nonadecan-3-yl]sulfanyl}methyl 4-{[(2,2-dimethylpropanoyl)oxy]methoxy}benzoate] | 5.72
9 | CC(C)(C)C(=O)OCSP1(=O)OC[C@H]2O[C@@H](n3cnc4c(N)ncnc43)[C@H](F)[C@@H]2OCP(=O)(O)OC[C@H]2O[C@@H](n3cnc4c(N)ncnc43)[C@H](F)[C@@H]2O1 (single isomer, unassigned) [Compound 32b] | 6.22
10 | CCCCCCCCCC(=O)OCSP1(=O)OC[C@H]2O[C@@H](n3cnc4c(N)ncnc43)[C@H](F)[C@@H]2OCP(=O)(O)OC[C@H]2O[C@@H](n3cnc4c(N)ncnc43)[C@H](F)[C@@H]2O1 (single isomer, unassigned) [Compound 36a] | 7.10
11 | CCCCCCCCCCCCOC(=O)OCSP1(=O)OC[C@H]2O[C@@H](n3cnc4c(N)ncnc43)[C@H](F)[C@@H]2OCP(=O)(O)OC[C@H]2O[C@@H](n3cnc4c(N)ncnc43)[C@H](F)[C@@H]2O1 (stereo partly drawn) [Compound 34b, (((2R,3R,3aR,7aR,9R,10R,10aR,15aR)-2,9-bis(6-amino-9H-purin-9-yl)-3,10-difluoro-13-hydroxy-5,13-dioxidodecahydro-2H-difuro[3,2-d:3′,2′-k][1,3,7,10]tetraoxa[2,8]diphosphacyclotridecin-5-yl)thio)methyl dodecyl carbonate] | 7.15
12 | CCCCCCCCCCCC(=O)OCSP1(=O)OC[C@H]2O[C@@H](n3cnc4c(N)ncnc43)[C@H](F)[C@@H]2OCP(=O)(O)OC[C@H]2O[C@@H](n3cnc4c(N)ncnc43)[C@H](F)[C@@H]2O1 (single isomer, unassigned) [Compound 31a] | 7.40
13 | CCCCCCCCCCCC(=O)OCSP1(=O)OC[C@H]2O[C@@H](n3cnc4c(N)ncnc43)[C@H](F)[C@@H]2OCP(=O)(O)OC[C@H]2O[C@@H](n3cnc4c(N)ncnc43)[C@H](F)[C@@H]2O1 (single isomer, unassigned) [Compound 31b] | 8.00

pEC50: −log10 of the molar value.
